The source of these data is article PMC9325670, “Limited nutrient availability in the tumor microenvironment renders pancreatic tumors sensitive to allosteric IDH1 inhibitors” (Nature Cancer, 2022).

Chains of the proteins cited; added tags and fusions are not shown. Residues count along the entry.
UniProt O75874, 2-414: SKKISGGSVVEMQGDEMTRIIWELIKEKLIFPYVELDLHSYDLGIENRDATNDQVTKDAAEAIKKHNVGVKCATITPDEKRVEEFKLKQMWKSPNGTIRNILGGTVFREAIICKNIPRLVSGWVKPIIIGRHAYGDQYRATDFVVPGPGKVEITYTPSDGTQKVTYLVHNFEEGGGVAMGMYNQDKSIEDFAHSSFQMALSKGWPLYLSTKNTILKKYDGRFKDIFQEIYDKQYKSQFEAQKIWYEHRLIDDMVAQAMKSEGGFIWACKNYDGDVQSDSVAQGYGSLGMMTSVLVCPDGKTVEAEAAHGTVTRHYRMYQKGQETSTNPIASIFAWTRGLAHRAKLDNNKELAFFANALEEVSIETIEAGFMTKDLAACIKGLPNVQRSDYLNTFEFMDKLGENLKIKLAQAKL

For this assay, the target named is T1, wild-type isocitrate dehydrogenase 1 (wtIDH1) (Homo sapiens, UniProt O75874).
T1 construct: gene IDH1; human recombinant IDH1
The assay can be described thus: cell-free fluorometric NADPH formation assay at […] Mg2+. In kind it is biochemical.

For the molecule `C[C@H](O)c1cccc(NC(=O)c2nn(Cc3ccc(F)cc3)c3c2CN(C(=O)c2ccc[nH]2)C[C@H]3C)c1` [GSK321], the midpoint of inhibition, the IC50, lay at 2.07 nM.
